Test results: IntAct's records for PubMed 35512704

B1: RAC-alpha serine/threonine-protein kinase (Homo sapiens), P31749 (parent)
chain: MSDVAIVKEGWLHKRGEYIKTWRPRYFLLKNDGTFIGYKERPQDVDQREAPLNNFSVAQCQLMKTERPRPNTFIIRCLQWTTVIERTFHVETPEEREEWTTAIQTVADGLKKQEEEEMDFRSGSPSDNSGAEEMEVSLAKPKHRVTMNEFEYLKLLGKGTFGKVILVKEKATGRYYAMKILKKEVIVAKDEVAHTLTENRVLQNSRHPFLTALKYSFQTHDRLCFVMEYANGGELFFHLSRERVFSEDRARFYGAEIVSALDYLHSEKNVVYRDLKLENLMLDKDGHIKITDFGLCKEGIKDGATMKTFCGTPEYLAPEVLEDNDYGRAVDWWGLGVVMYEMMCGRLPFYNQDHEKLFELILMEEIRFPRTLGPEAKSLLSGLLKKDPKQRLGGGSEDAKEIMQHRFFAGIVWQHVYEKKLSPPFKPQVTSETDTRYFDEEFTAQMITITPPDQDDSMECVDSERRPHFPQFSYSASGTA

Variants of: B1
Details: with ntrk2_human NTRK2, Q16620

Variant	effect of a mutation on the interaction
MSDVAIVKEGWLHKRGKYIKTWRPRYFLLKNDGTFIGYKERPQDVDQREAPLNNFSVAQCQLMKTERPRPNTFIIRCLQWTTVIERTFHVETPEEREEWTTAIQTVADGLKKQEEEEMDFRSGSPSDNSGAEEMEVSLAKPKHRVTMNEFEYLKLLGKGTFGKVILVKEKATGRYYAMKILKKEVIVAKDEVAHTLTENRVLQNSRHPFLTALKYSFQTHDRLCFVMEYANGGELFFHLSRERVFSEDRARFYGAEIVSALDYLHSEKNVVYRDLKLENLMLDKDGHIKITDFGLCKEGIKDGATMKTFCGTPEYLAPEVLEDNDYGRAVDWWGLGVVMYEMMCGRLPFYNQDHEKLFELILMEEIRFPRTLGPEAKSLLSGLLKKDPKQRLGGGSEDAKEIMQHRFFAGIVWQHVYEKKLSPPFKPQVTSETDTRYFDEEFTAQMITITPPDQDDSMECVDSERRPHFPQFSYSASGTA [E17K]	causing an interaction

Variants of: B1
Details: with pak3_human PAK3, O75914

Variant	effect of a mutation on the interaction
MSDVAIVKEGWLHKRGKYIKTWRPRYFLLKNDGTFIGYKERPQDVDQREAPLNNFSVAQCQLMKTERPRPNTFIIRCLQWTTVIERTFHVETPEEREEWTTAIQTVADGLKKQEEEEMDFRSGSPSDNSGAEEMEVSLAKPKHRVTMNEFEYLKLLGKGTFGKVILVKEKATGRYYAMKILKKEVIVAKDEVAHTLTENRVLQNSRHPFLTALKYSFQTHDRLCFVMEYANGGELFFHLSRERVFSEDRARFYGAEIVSALDYLHSEKNVVYRDLKLENLMLDKDGHIKITDFGLCKEGIKDGATMKTFCGTPEYLAPEVLEDNDYGRAVDWWGLGVVMYEMMCGRLPFYNQDHEKLFELILMEEIRFPRTLGPEAKSLLSGLLKKDPKQRLGGGSEDAKEIMQHRFFAGIVWQHVYEKKLSPPFKPQVTSETDTRYFDEEFTAQMITITPPDQDDSMECVDSERRPHFPQFSYSASGTA [E17K]	causing an interaction

Variants of: B1
Details: with prkn_human PRKN

Variant	effect of a mutation on the interaction
MSDVAIVKEGWLHKRGKYIKTWRPRYFLLKNDGTFIGYKERPQDVDQREAPLNNFSVAQCQLMKTERPRPNTFIIRCLQWTTVIERTFHVETPEEREEWTTAIQTVADGLKKQEEEEMDFRSGSPSDNSGAEEMEVSLAKPKHRVTMNEFEYLKLLGKGTFGKVILVKEKATGRYYAMKILKKEVIVAKDEVAHTLTENRVLQNSRHPFLTALKYSFQTHDRLCFVMEYANGGELFFHLSRERVFSEDRARFYGAEIVSALDYLHSEKNVVYRDLKLENLMLDKDGHIKITDFGLCKEGIKDGATMKTFCGTPEYLAPEVLEDNDYGRAVDWWGLGVVMYEMMCGRLPFYNQDHEKLFELILMEEIRFPRTLGPEAKSLLSGLLKKDPKQRLGGGSEDAKEIMQHRFFAGIVWQHVYEKKLSPPFKPQVTSETDTRYFDEEFTAQMITITPPDQDDSMECVDSERRPHFPQFSYSASGTA [E17K]	causing an interaction

Variants of: B1
Details: with pdcd1_human PDCD1, Q15116

Variant	effect of a mutation on the interaction
MSDVAIVKEGWLHKRGKYIKTWRPRYFLLKNDGTFIGYKERPQDVDQREAPLNNFSVAQCQLMKTERPRPNTFIIRCLQWTTVIERTFHVETPEEREEWTTAIQTVADGLKKQEEEEMDFRSGSPSDNSGAEEMEVSLAKPKHRVTMNEFEYLKLLGKGTFGKVILVKEKATGRYYAMKILKKEVIVAKDEVAHTLTENRVLQNSRHPFLTALKYSFQTHDRLCFVMEYANGGELFFHLSRERVFSEDRARFYGAEIVSALDYLHSEKNVVYRDLKLENLMLDKDGHIKITDFGLCKEGIKDGATMKTFCGTPEYLAPEVLEDNDYGRAVDWWGLGVVMYEMMCGRLPFYNQDHEKLFELILMEEIRFPRTLGPEAKSLLSGLLKKDPKQRLGGGSEDAKEIMQHRFFAGIVWQHVYEKKLSPPFKPQVTSETDTRYFDEEFTAQMITITPPDQDDSMECVDSERRPHFPQFSYSASGTA [E17K]	causing an interaction

Variants of: B1
Details: with pdk1_human PDK1, Q15118

Variant	effect of a mutation on the interaction
MSDVAIVKEGWLHKRGKYIKTWRPRYFLLKNDGTFIGYKERPQDVDQREAPLNNFSVAQCQLMKTERPRPNTFIIRCLQWTTVIERTFHVETPEEREEWTTAIQTVADGLKKQEEEEMDFRSGSPSDNSGAEEMEVSLAKPKHRVTMNEFEYLKLLGKGTFGKVILVKEKATGRYYAMKILKKEVIVAKDEVAHTLTENRVLQNSRHPFLTALKYSFQTHDRLCFVMEYANGGELFFHLSRERVFSEDRARFYGAEIVSALDYLHSEKNVVYRDLKLENLMLDKDGHIKITDFGLCKEGIKDGATMKTFCGTPEYLAPEVLEDNDYGRAVDWWGLGVVMYEMMCGRLPFYNQDHEKLFELILMEEIRFPRTLGPEAKSLLSGLLKKDPKQRLGGGSEDAKEIMQHRFFAGIVWQHVYEKKLSPPFKPQVTSETDTRYFDEEFTAQMITITPPDQDDSMECVDSERRPHFPQFSYSASGTA [E17K]	causing an interaction

Variants of: B1
Details: with pk3ca_human PIK3CA

Variant	effect of a mutation on the interaction
MSDVAIVKEGWLHKRGKYIKTWRPRYFLLKNDGTFIGYKERPQDVDQREAPLNNFSVAQCQLMKTERPRPNTFIIRCLQWTTVIERTFHVETPEEREEWTTAIQTVADGLKKQEEEEMDFRSGSPSDNSGAEEMEVSLAKPKHRVTMNEFEYLKLLGKGTFGKVILVKEKATGRYYAMKILKKEVIVAKDEVAHTLTENRVLQNSRHPFLTALKYSFQTHDRLCFVMEYANGGELFFHLSRERVFSEDRARFYGAEIVSALDYLHSEKNVVYRDLKLENLMLDKDGHIKITDFGLCKEGIKDGATMKTFCGTPEYLAPEVLEDNDYGRAVDWWGLGVVMYEMMCGRLPFYNQDHEKLFELILMEEIRFPRTLGPEAKSLLSGLLKKDPKQRLGGGSEDAKEIMQHRFFAGIVWQHVYEKKLSPPFKPQVTSETDTRYFDEEFTAQMITITPPDQDDSMECVDSERRPHFPQFSYSASGTA [E17K]	causing an interaction

Variants of: B1
Details: with pk3cb_human PIK3CB

Variant	effect of a mutation on the interaction
MSDVAIVKEGWLHKRGKYIKTWRPRYFLLKNDGTFIGYKERPQDVDQREAPLNNFSVAQCQLMKTERPRPNTFIIRCLQWTTVIERTFHVETPEEREEWTTAIQTVADGLKKQEEEEMDFRSGSPSDNSGAEEMEVSLAKPKHRVTMNEFEYLKLLGKGTFGKVILVKEKATGRYYAMKILKKEVIVAKDEVAHTLTENRVLQNSRHPFLTALKYSFQTHDRLCFVMEYANGGELFFHLSRERVFSEDRARFYGAEIVSALDYLHSEKNVVYRDLKLENLMLDKDGHIKITDFGLCKEGIKDGATMKTFCGTPEYLAPEVLEDNDYGRAVDWWGLGVVMYEMMCGRLPFYNQDHEKLFELILMEEIRFPRTLGPEAKSLLSGLLKKDPKQRLGGGSEDAKEIMQHRFFAGIVWQHVYEKKLSPPFKPQVTSETDTRYFDEEFTAQMITITPPDQDDSMECVDSERRPHFPQFSYSASGTA [E17K]	causing an interaction
